Source: publication PMC6899459 (Chemmedchem, 2019)

Protein sequences, listed by entry. Tags and fused reporters are not part of them.
UniProt Q92847, whole entry: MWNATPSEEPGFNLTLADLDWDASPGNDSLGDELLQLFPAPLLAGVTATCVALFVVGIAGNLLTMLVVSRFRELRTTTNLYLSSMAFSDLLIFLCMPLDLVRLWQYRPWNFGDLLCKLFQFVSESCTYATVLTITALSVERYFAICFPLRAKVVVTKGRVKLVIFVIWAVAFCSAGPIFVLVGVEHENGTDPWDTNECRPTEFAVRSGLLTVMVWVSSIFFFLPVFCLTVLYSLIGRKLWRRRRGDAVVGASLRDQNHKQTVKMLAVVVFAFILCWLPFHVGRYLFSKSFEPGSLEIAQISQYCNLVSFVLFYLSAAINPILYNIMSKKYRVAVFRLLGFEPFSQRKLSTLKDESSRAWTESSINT

Target: ghrelin receptor (Homo sapiens, UniProt Q92847)
Assay: IP-One assay
Format: cell-based
Details: SEM

Row | EC50 [nM] | Structure (SMILES)
1 | 479 | CC(C)C[C@H](NC(=O)[C@H](CC(C)C)NC(=O)[C@@H](Cc1c[nH]c2ccccc12)NC(=O)[C@H](Cc1ccccc1)NC(=O)[C@@H](NC(=O)[C@@H](N)CCCCN)[C@H](c1ccccc1)c1c[nH]c2ccccc12)C(N)=O [Peptide 9, K‐Wrf‐FwLL‐NH2]
2 | 407 | CC(C)C[C@H](NC(=O)[C@H](CC(C)C)NC(=O)[C@@H](Cc1c[nH]c2ccccc12)NC(=O)[C@H](Cc1ccccc1)NC(=O)[C@@H](NC(=O)[C@@H](N)CCCCN)[C@@H](c1ccccc1)c1c[nH]c2ccccc12)C(N)=O [Peptide 10, K‐Wsf‐FwLL‐NH2]
